# In patent US20150323548A1, “METHODS OF MONITORING THE MODULATION OF THE KINASE ACTIVITY OF FIBROBLAST GROWTH FACTOR RECEPTOR AND USES OF SAID METHODS” (Novartis AG, priority 2008, published 2015):
# Settings: melanoma patients, oral once daily continuous dose schedule
smiles,measurement,value
CN1CCN(c2ccc3nc(-c4c(N)c5c(F)cccc5[nH]c4=O)[nH]c3c2)CC1 [TKI258],MTD,400 mg/day
